Where two headings read alike, the source gives them in different places.
What was measured:
[1] = system: non-infectious pneumonia induced by cigarette smoke extract in mice; conditions: 0.3 mg/kg intragastric daily day 7-27
[2] = system: thermal pain irritation hot plate in Balb/c mice
[3] = system: COPD model in guinea pigs
[4] = system: elastase-induced pulmonary emphysema in mice; conditions: 3 mg/kg in table (0.3 mg/kg in text), day 21
[5] = system: sephadex-induced bronchitis in rats
[6] = system: bronchial asthma model in guinea pigs; conditions: 0.14-14 mg/kg intragastric daily for 10 days, FIG. 1
[7] = system: specific pain reaction by chemical irritation of the peritoneum in Balb/c mice; assay: Abdominal constriction test (acetic acid) in mice
[8] = system: imiquimod-induced psoriasis in Balb/c mice; conditions: 0.3 mg/kg intragastric daily
[9] = system: formaldehyde-induced pharyngitis in rats; assay: Rat model of non-infectious pharyngitis (Evans blue exudation); conditions: 18 mg/kg intragastric 24 h and 1 h before formaldehyde
[10] = system: atopic dermatitis in balb/c mice; conditions: 3 mg/kg intragastric day 8-17
[11] = system: allergic rhinitis in guinea pigs; assay: Guinea pig model of allergic rhinitis (ovalbumin)
[12] = system: LPS-induced acute lung injury in rats; conditions: 1.8 mg/kg intragastric twice, 48 h after LPS
[13] = system: bleomycin-induced acute lung injury in mice; conditions: 24 h after bleomycin
[14] = system: adjuvant arthritis in rats; conditions: 0.5 mg/kg
[15] = system: carrageenan air pouch in Balb/c mice
[16] = system: diabetic nephropathy in rats; assay: Rat model of diabetic nephropathy (high-fat diet and streptozotocin), urine analysis; type: in vivo; conditions: 5 mg/kg in table (50 mg/kg in text), after 6 weeks of intragastric administration
[17] = system: thioglycolate peritonitis in balb/c mice; conditions: 1 mg/kg intragastric, 72 hours
[18] = system: carrageenan-induced rat paw edema; assay: Carrageenan-induced rat paw edema; type: in vivo; conditions: 2 hours after carrageenan
Description: Experiments were performed on male white nonlinear rats weighing 250-270 g.

[19] = 0.03 mg/kg intragastric 1 hour before acetic acid
[20] = 0.3 mg/kg intragastric 1 hour before acetic acid
[21] = 3 mg/kg intragastric 1 hour before acetic acid
[22] = 30 mg/kg intragastric 1 hour before acetic acid
[23] = 3 mg/kg intragastric, 48 hours after carrageenan

O=C(NCCc1cnc[nH]1)C(=O)NCCc1cnc[nH]1 [Compound I, N,N′-bis[2-(1H-imidazol-4-yl)ethyl]oxalamide]
Alveolitis (DI, %) [1]: 17.70 ± 2.00*& % | Interstitial pneumonia [1]: 1.08 ± 0.26 points | Peribronchitis [1]: 1.09 ± 0.24 points | Perivasculitis [1]: 0.38 ± 0.13& points | The threshold of pain sensitivity (TPS), after 1 hour ([2]; 0.3 mg/kg intragastric): 101.13 ± 9.64 % to the background | The threshold of pain sensitivity (TPS), after 1 hour ([2]; 3 mg/kg intragastric): 95.28 ± 6.79 % to the background | The threshold of pain sensitivity (TPS), after 1 hour ([2]; 30 mg/kg intragastric): 104.55 ± 8.52 % to the background | Eosinophils in 1 μl of the bronchoalveolar lavage ([3]; 0.014 mg/kg intragastric): 171 ± 32& in 1 μl | Leukocytes in 1 μl of the bronchoalveolar lavage ([3]; 0.014 mg/kg intragastric): 2748 ± 174& in 1 μl | Lymphocytes in 1 μl of the bronchoalveolar lavage ([3]; 0.014 mg/kg intragastric): 88 ± 29 in 1 μl | Macrophages in 1 μl of the bronchoalveolar lavage ([3]; 0.014 mg/kg intragastric): 1805 ± 123#& in 1 μl | Neutropils in 1 μl of the bronchoalveolar lavage ([3]; 0.014 mg/kg intragastric): 684 ± 62#& in 1 μl | Eosinophils in 1 μl of the bronchoalveolar lavage ([3]; 0.14 mg/kg intragastric): 287 ± 64 in 1 μl | Leukocytes in 1 μl of the bronchoalveolar lavage ([3]; 0.14 mg/kg intragastric): 3422 ± 434& in 1 μl | Lymphocytes in 1 μl of the bronchoalveolar lavage ([3]; 0.14 mg/kg intragastric): 134 ± 60 in 1 μl | Macrophages in 1 μl of the bronchoalveolar lavage ([3]; 0.14 mg/kg intragastric): 2064 ± 313& in 1 μl | Neutropils in 1 μl of the bronchoalveolar lavage ([3]; 0.14 mg/kg intragastric): 937 ± 141 in 1 μl | Eosinophils in 1 μl of the bronchoalveolar lavage ([3]; 1.4 mg/kg intragastric): 245 ± 55 in 1 μl | Leukocytes in 1 μl of the bronchoalveolar lavage ([3]; 1.4 mg/kg intragastric): 4149 ± 357#& in 1 μl | Lymphocytes in 1 μl of the bronchoalveolar lavage ([3]; 1.4 mg/kg intragastric): 71 ± 29 in 1 μl | Macrophages in 1 μl of the bronchoalveolar lavage ([3]; 1.4 mg/kg intragastric): 2820 ± 273& in 1 μl | Neutropils in 1 μl of the bronchoalveolar lavage ([3]; 1.4 mg/kg intragastric): 931 ± 166 in 1 μl | Area of extended emphysematous lung tissue, lower pulmonary field [4]: 35.28 ± 5.81 % of normal | Area of extended emphysematous lung tissue, medium pulmonary field [4]: 37.09 ± 5.86 % of normal | Area of extended emphysematous lung tissue, top pulmonary field [4]: 11.76 ± 1.48 % of normal | Eosinophils in 1 μl of the BAL ([5]; 0.18 mg/kg intragastric): 0 ± 0& in 1 μl | Leukocytes in 1 μl of the BAL ([5]; 0.18 mg/kg intragastric): 3833 ± 525 in 1 μl | Lymphocytes in 1 μl of the BAL ([5]; 0.18 mg/kg intragastric): 0 ± 0 in 1 μl | Macrophages in 1 μl of the BAL ([5]; 0.18 mg/kg intragastric): 3127 ± 351 in 1 μl | Neutrophils in 1 μl of the BAL ([5]; 0.18 mg/kg intragastric): 283 ± 75& in 1 μl | Eosinophils in 1 μl of the BAL ([5]; 1.8 mg/kg intragastric): 0 ± 0& in 1 μl | Leukocytes in 1 μl of the BAL ([5]; 1.8 mg/kg intragastric): 4133 ± 454 in 1 μl | Lymphocytes in 1 μl of the BAL ([5]; 1.8 mg/kg intragastric): 0 ± 0 in 1 μl | Macrophages in 1 μl of the BAL ([5]; 1.8 mg/kg intragastric): 3287 ± 381 in 1 μl | Neutrophils in 1 μl of the BAL ([5]; 1.8 mg/kg intragastric): 846 ± 101 in 1 μl | Influx of inflammatory cells in the bronchoalveolar space [6]: reduced the influx of inflammatory cells in the bronchoalveolar space | Quantity of constrictions for 15 minutes [7, 19]: 22.70 ± 2.14 | Quantity of constrictions for 15 minutes [7, 20]: 13.90 ± 2.23 | Quantity of constrictions for 15 minutes [7, 21]: 18.65 ± 2.44 | Quantity of constrictions for 15 minutes [7, 22]: 21.15 ± 2.97 | The gain of the thickness of the affected ear to day 0 ([8]; Day 3): 38.3 ± 5.8 % | The gain of the thickness of the affected ear to day 0 ([8]; Day 4): 45.2 ± 4.1*& % | The gain of the thickness of the affected ear to day 0 ([8]; Day 5): 57.3 ± 3.9*& % | The gain of the thickness of the affected ear to day 0 ([8]; Day 6): 62.8 ± 5.4*& % | The concentration of the dye in the tissue [9]: 0.022 ± 0.003& μg/mg | Reaction index [10]: 25.4 ± 10.2*#& % | The difference between the mass of the experiment and control ear [10]: 0.007 ± 0.003#& mg | A quantity of scratchings of the nose/2 hours ([11]; 0.14 mg/kg intragastric once): 37.3 ± 7.8*& /2 hours | A quantity of sneezes/2 hours ([11]; 0.14 mg/kg intragastric once): 9.3 ± 1.7 /2 hours | A quantity of scratchings of the nose/2 hours ([11]; 1.4 mg/kg intragastric once): 41.0 ± 12.0 /2 hours | A quantity of sneezes/2 hours ([11]; 1.4 mg/kg intragastric once): 12.1 ± 1.5 /2 hours

O=C(CC(=O)NCCc1cnc[nH]1)NCCc1cnc[nH]1 [Compound IV, N,N′-bis[2-(1H-imidazol-4-yl)ethyl]malonamide]
Quantity of constrictions for 15 minutes [7, 19]: 23.60 ± 2.54 | Quantity of constrictions for 15 minutes [7, 20]: 15.50 ± 2.63 | Quantity of constrictions for 15 minutes [7, 21]: 19.20 ± 3.43 | Quantity of constrictions for 15 minutes [7, 22]: 15.30 ± 3.10 | Eosinophils in 1 μl of the bronchoalveolar lavage [12]: 0 ± 0 in 1 μl | Leukocytes in 1 μl of the bronchoalveolar lavage [12]: 4485 ± 815 & in 1 μl | Lymphocytes in 1 μl of the bronchoalveolar lavage [12]: 0 ± 0 in 1 μl | Macrophages in 1 μl of the bronchoalveolar lavage [12]: 3699 ± 653& in 1 μl | Neutrophils in 1 μl of the bronchoalveolar lavage [12]: 785 ± 181& in 1 μl | A quantity of scratchings of the nose/2 hours ([11]; 0.14 mg/kg intragastric once): 5.3 ± 1.14 /2 hours | A quantity of sneezes/2 hours ([11]; 0.14 mg/kg intragastric once): 1.4 ± 0.67& /2 hours | A quantity of scratchings of the nose/2 hours ([11]; 1.4 mg/kg intragastric once): 1.8 ± 1& /2 hours | A quantity of sneezes/2 hours ([11]; 1.4 mg/kg intragastric once): 1.4 ± 0.6& /2 hours

O=C(NCCc1c[nH]cn1)c1cccc(C(=O)NCCc2c[nH]cn2)c1 [Compound II, N,N′-bis[2-(1H-imidazol-4-yl)ethyl]isophthalamide]
The threshold of pain sensitivity (TPS), after 1 hour ([2]; 0.3 mg/kg intragastric): 97.43 ± 6.43 % to the background | The threshold of pain sensitivity (TPS), after 1 hour ([2]; 3 mg/kg intragastric): 90.54 ± 6.59 % to the background | The threshold of pain sensitivity (TPS), after 1 hour ([2]; 30 mg/kg intragastric): 110.18 ± 11.9 % to the background | Eosinophils in 1 μl of the bronchoalveolar lavage ([13]; 3 mg/kg intragastric twice): 0.00 ± 0.00 in 1 μl | Leukocytes in 1 μl of the bronchoalveolar lavage ([13]; 3 mg/kg intragastric twice): 122.34 ± 15.96 & in 1 μl | Lymphocytes in 1 μl of the bronchoalveolar lavage ([13]; 3 mg/kg intragastric twice): 0.00 ± 0.00 in 1 μl | Macrophages in 1 μl of the bronchoalveolar lavage ([13]; 3 mg/kg intragastric twice): 39.57 ± 7.91*& in 1 μl | Neutropils in 1 μl of the bronchoalveolar lavage ([13]; 3 mg/kg intragastric twice): 82.77 ± 16.87 *& in 1 μl | Eosinophils in 1 μl of the bronchoalveolar lavage ([13]; 30 mg/kg intragastric twice): 0.00 ± 0.00 in 1 μl | Leukocytes in 1 μl of the bronchoalveolar lavage ([13]; 30 mg/kg intragastric twice): 199.12 ± 46.59 & in 1 μl | Lymphocytes in 1 μl of the bronchoalveolar lavage ([13]; 30 mg/kg intragastric twice): 0.00 ± 0.00 in 1 μl | Macrophages in 1 μl of the bronchoalveolar lavage ([13]; 30 mg/kg intragastric twice): 143.90 ± 39.26 in 1 μl | Neutropils in 1 μl of the bronchoalveolar lavage ([13]; 30 mg/kg intragastric twice): 55.21 ± 12.53*& in 1 μl | The gain of the volume of the affected paw ([14]; Day 14): 118.8 ± 3.6 % to the initial level | The gain of the volume of the contralateral paw ([14]; Day 14): 5.39 ± 1.67 % to the initial level | The gain of the volume of the affected paw ([14]; Day 16): 105 ± 3.2 % to the initial level | The gain of the volume of the contralateral paw ([14]; Day 16): 6.75 ± 1.58 % to the initial level | The gain of the volume of the affected paw ([14]; Day 18): 104.4 ± 2.7*& % to the initial level | The gain of the volume of the contralateral paw ([14]; Day 18): 18.48 ± 1 % to the initial level | The gain of the volume of the affected paw ([14]; Day 21): 86.3 ± 3.9*& % to the initial level | The gain of the volume of the contralateral paw ([14]; Day 21): 19.77 ± 1.67*& % to the initial level | The gain of the volume of the affected paw ([14]; Day 25): 88.5 ± 2.4*& % to the initial level | The gain of the volume of the contralateral paw ([14]; Day 25): 15.45 ± 1.21*& % to the initial level | The gain of the volume of the affected paw ([14]; Day 28): 86.9 ± 2.3*& % to the initial level | The gain of the volume of the contralateral paw ([14]; Day 28): 14.04 ± 1.75*& % to the initial level | The gain of the volume of the affected paw ([14]; Day 30): 83.2 ± 2.2*& % to the initial level | The gain of the volume of the contralateral paw ([14]; Day 30): 13.02 ± 0.94*& % to the initial level | Reduction of the influx of leukocytes and macrophages ([15]; 3 mg/kg): 10 times | Leukocytes in the exudate from the carrageenan pouch [15, 23]: 1.0 ± 0.1 & × 10^9/1 | Macrophages in the exudate from the carrageenan pouch [15, 23]: 0.5 ± 0.1 & × 10^9/1 | ACR [16]: 202.3 ± 26.8 & protein(μg/l)/creatinine (mg/l | Daily protein [16]: 1846.3 ± 337.6 μg/18 h | Dieresis [16]: 7.45 ± 1.0 ml/18 h. | Leukocytes in the exudate from the abdominal cavity [17]: 1.97 ± 0.36*& × 10^9/1 | Monocytes in the exudate from the abdominal cavity [17]: 0.65 ± 0.12& × 10^9/1 | The gain of the thickness of the affected ear to day 0 ([8]; Day 3): 35.3 ± 2.1 % | The gain of the thickness of the affected ear to day 0 ([8]; Day 4): 48.1 ± 2.8*& % | The gain of the thickness of the affected ear to day 0 ([8]; Day 5): 59.6 ± 4.5*& % | The gain of the thickness of the affected ear to day 0 ([8]; Day 6): 70.6 ± 4.4*& % | Inhibition of edema growth ([18]; 0.18 mg/kg intragastric): 34% | Inhibition of edema growth ([18]; 1.8 mg/kg intragastric): 34% | Reaction index [10]: 38.1 ± 7.7*& % | The difference between the mass of the experiment and control ear [10]: 0.013 ± 0.002*& mg

O=C(NCCc1cnc[nH]1)c1ccc(C(=O)NCCc2cnc[nH]2)cc1 [Compound X, N,N′-bis[2-(1H-imidazol-4-yl)ethyl]terephthalamide]
Quantity of constrictions for 15 minutes [7, 20]: 17.2 ± 3.4
